# Test results taken from ChEMBL document CHEMBL1154820, “Synthesis, characterization and structure-activity relationship of novel N-phosphorylated E,E-3,5-bis(thienylidene)piperid-4-ones” (Eur J Med Chem, 2010).
# Columns and labels:
# Type in all cases: functional, cell-based
# SK-OV-3 = test: Cytotoxicity against human Scov3 cells after 72 hrs by MTT assay
# In short: (§1)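 Cells kept in RPMI-1640 with 10% FBS, 2 mM L-glutamine and gentamicin; seeded at 1×10⁴ cells/well, attached overnight at 37 °C, 5% CO₂. Compounds dissolved in DMSO, diluted into FBS-free medium, tested at […], 10⁻⁵, 10⁻⁶, 10⁻⁷ M in triplicate for 72 h. MTT (5 mg/ml) added for 3 h at 37 °C, formazan dissolved in DMSO, OD read at 590 nm; viability loss versus untreated controls, IC50 read graphically; melphalan as positive control.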
# [1] = Cytotoxicity against human Caov3 cells after 72 hrs by MTT assay; details: caov-3; in short: as §1
# A549 = test: Cytotoxicity against human A549 cells after 72 hrs by MTT assay; in short: as §1
structure (smiles),measurement,setting,value
CP(=O)(Oc1ccccc1)N1C/C(=C\c2cccs2)C(=O)/C(=C/c2cccs2)C1 (stereo not drawn),IC50,SK-OV-3,8 µM
same,IC50,[1],10 µM
same,IC50,A549,4 µM
